Data on 2 compounds can be found in publication PMC11571109, “Covalent Inhibitors of S100A4 Block the Formation of a Pro-Metastasis Non-Muscle Myosin 2A Complex” (Journal of Medicinal Chemistry, 2024).

Amino acid sequences for entries named in this document (tags omitted). A change or cut given only in a name is not applied to a line headed by its entry.
UniProt P26447: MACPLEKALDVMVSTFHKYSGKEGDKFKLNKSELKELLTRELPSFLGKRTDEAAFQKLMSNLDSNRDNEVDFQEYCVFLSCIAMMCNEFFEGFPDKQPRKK

The target of data set [1] is T1, S100A4 (Homo sapiens, UniProt P26447). The data set can be described thus: Protein labeling detection by mass spectrometry, S100A4. Conditions: 10 μM S100A4, 100 μM inhibitor, 1 h.
Data set [2] relates to P-glycoprotein (P-gp, MDR1). The data set can be described thus: Cell permeability MDR1-MDCK II. The class given is in vitro ADME. To be noted: dog, insufficient recovery (<50.0), read-out: MDR1-MDCK II, efflux ratio (ER). From the text:
Selected compounds were screened for aqueous solubility in PBS (pH 7.4), metabolic stability in mouse liver microsomes (MLM) as a measure of clearance, Log D, and permeability. ADME studies reported in this work were independently performed by WuXi AppTec (Shanghai, China). Raw data are provided upon request.

For data set [3], the target named is T1, S100A4. Nature of the data set: Kinetics of S100A4 labeling, RapidFire MS time course. Type of data set: binding. Also noted: His6 (TEV-cleavable, pNIC28-Bsa4) (N); made in house; host or cells: E. coli Rosetta (DE3). To be noted: 100 μM inhibitor, S100A4 1 μM / 20 μM, calcium, triplicate. Here is the method:
In order to determine the kinetics of S100A4 inhibition by phenylproline derivatives, we performed a time course of the detection of unmodified S100A4 (1 μM) against each covalent inhibitor (100 μM) in the presence of calcium. Each experiment was done in triplicate using a RapidFire MS system. The rate of the reaction was determined as −kobs = ln([A]/[A0]).
For kinetic determination of S100A4 inhibition, 1 μM S100A4 was mixed with a 100 μM covalent inhibitor in 50 mM MES, pH 7.0, and 1 mM CaCl2 buffer. The mixture was analyzed over time using the RapidFire MS system (Agilent Technologies).

Several values for one entry are separate records, joined by “and”; a condition that tells them apart may be missing. Equal values may be shown once.

For `O=C(Nc1cccc(Cl)c1)[C@H]1C[C@H](c2ccccc2)CN1C(=O)CCl` [compound 5], on S100A4 [1], the “shift of the S100A4 protein mass (covalent adduct)” value was determined as 340 Da.

Take `O=C(Nc1cccc(Cl)c1)[C@H]1C[C@H](c2ccccc2)CN1C(=O)CCl` [5a]: the efflux ratio in data set [2] is below 3.62. The “kobs of S100A4 labeling” value on S100A4 [3] is 22 × 10^–4 s^–1 and 22. 10^-4 s^–1.
